Test system: Shionogi tumors
Conditions: 12.5 mg/kg i.p. once daily for 40 days from 1 day postcastration

5′-TCTCCCGGCATGTGCCAT-3′
median time to recurrence of AI tumors postcastration: 31 days

Reference: patent US7148204B2, “Antisense modulation of bcl-x expression” (Isis Pharmaceuticala, Inc., priority 1998, dated 2006)
